# Test results reported in PubChem BioAssay AID1434 (Sanford-Burnham Center for Chemical Genomics, 2008).
# Sequences of proteins named here, by UniProt entry; tags and fusion partners are left off.
# UniProt Q01196, whole entry, looked up: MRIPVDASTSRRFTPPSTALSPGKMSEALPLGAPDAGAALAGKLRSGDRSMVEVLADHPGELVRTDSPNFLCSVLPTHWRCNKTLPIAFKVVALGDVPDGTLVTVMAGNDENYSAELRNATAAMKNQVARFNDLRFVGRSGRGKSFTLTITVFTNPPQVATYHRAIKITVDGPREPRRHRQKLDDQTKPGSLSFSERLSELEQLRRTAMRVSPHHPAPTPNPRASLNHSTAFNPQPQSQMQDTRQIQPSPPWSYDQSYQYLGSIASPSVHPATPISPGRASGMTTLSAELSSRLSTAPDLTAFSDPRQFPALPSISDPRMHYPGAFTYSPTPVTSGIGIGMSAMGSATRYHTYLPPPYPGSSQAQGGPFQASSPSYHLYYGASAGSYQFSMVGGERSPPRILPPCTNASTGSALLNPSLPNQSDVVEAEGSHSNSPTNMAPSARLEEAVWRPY
# UniProt Q13951, whole entry, looked up: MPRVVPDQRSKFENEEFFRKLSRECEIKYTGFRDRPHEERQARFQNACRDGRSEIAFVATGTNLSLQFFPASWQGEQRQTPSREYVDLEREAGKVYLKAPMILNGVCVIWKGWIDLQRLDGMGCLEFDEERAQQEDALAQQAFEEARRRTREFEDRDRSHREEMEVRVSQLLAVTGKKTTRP
# The list shows a part of the results, in another mix than the full data. The source made the active and inactive calls.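 How the source made its calls: active means mean inhibition across duplicate retests at 20 µM reaching about 50% (limit read from the data); inactive means the rest, inconclusive results apart.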
# Molecular target: Runt-related transcription factor 1 (Homo sapiens) + Core-binding factor subunit beta (Homo sapiens) (UniProt Q01196+Q13951)
# Assay: inhibitors of RUNX1 Runt–CBFb-SMMHC binding, primary screen, biochemical, FRET, Cerulean-Runt, Venus-CBFb-SMMHC, uHTS (AID 1434);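 further: 0% = DMSO wells and 100% = wells with excess untagged CBFb-SMMHC; inhibitors lower the FRET ratio by blocking Runt binding to CBFb-SMMHC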
# Conditions: Cerulean-Runt/Venus-CBFb-SMMHC FRET ratio 530/480, 1 h; at 20 µM; stronger effect = higher value
row,Structure (SMILES),inhibition
1,CCc1ccc(OP(C)(=O)O)cc1,inactive: -1.9%
